Test results as given in patent US20110269758A1, “NAPHTHYRIDINONES AS PROTEIN KINASE INHIBITORS” (MERCK PATENT GMBH, priority 2008, published 2011).

Sequences of proteins named here, by UniProt entry; tags and fusion partners are left off.
UniProt O14965, whole entry: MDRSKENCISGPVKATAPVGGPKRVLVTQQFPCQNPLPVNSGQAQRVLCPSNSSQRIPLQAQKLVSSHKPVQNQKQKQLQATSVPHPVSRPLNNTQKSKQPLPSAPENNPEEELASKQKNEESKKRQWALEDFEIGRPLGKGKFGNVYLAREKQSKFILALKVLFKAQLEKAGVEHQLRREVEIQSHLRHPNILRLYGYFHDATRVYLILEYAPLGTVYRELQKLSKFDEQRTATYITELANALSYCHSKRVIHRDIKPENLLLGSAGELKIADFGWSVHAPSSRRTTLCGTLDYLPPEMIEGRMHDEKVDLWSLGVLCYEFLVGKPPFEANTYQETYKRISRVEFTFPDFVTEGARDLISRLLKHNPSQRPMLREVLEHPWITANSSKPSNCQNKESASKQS
UniProt Q96GD4, whole entry: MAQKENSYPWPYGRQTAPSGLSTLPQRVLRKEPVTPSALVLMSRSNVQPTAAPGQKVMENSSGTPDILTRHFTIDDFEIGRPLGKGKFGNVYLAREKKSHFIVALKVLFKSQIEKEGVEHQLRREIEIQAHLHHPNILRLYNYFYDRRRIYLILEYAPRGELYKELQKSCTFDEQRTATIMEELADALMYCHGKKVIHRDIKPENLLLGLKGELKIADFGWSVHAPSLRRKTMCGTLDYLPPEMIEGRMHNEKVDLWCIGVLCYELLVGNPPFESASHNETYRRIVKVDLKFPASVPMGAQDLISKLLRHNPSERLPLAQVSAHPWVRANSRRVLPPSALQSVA

Tests used:
[1] = molecular target: Aurora Kinase A (Homo sapiens, UniProt O14965); assay: Biochemical enzyme assay for Aurora A activity (Caliper LC3000 / Desktop Profiler mobility shift); conditions: read-out: Aurora Kinase A IC50 in nM; GST-Aurora A, 15 μM ATP, 90 min at 25° C.; LC3000 or Desktop Profiler
[2] = molecular target: Aurora Kinase B (Homo sapiens, UniProt Q96GD4); assay: Biochemical enzyme assay for Aurora B activity (Caliper mobility shift); conditions: read-out: Aurora Kinase B IC50 in nM; LC3000 or Desktop Profiler
Protocol: The Aurora assays described here were performed on two Caliper Life Sciences systems, the LC3000 and the Desktop Profiler. These provide data on enzyme activity via measurement of the relative amounts of phosphorylated or unphosphorylated fluorescently labelled substrate peptide at the end of an enzymatic reaction. These different states of peptide are resolved by applying a potential difference across the sample. The presence of a charged phosphate group on the product (as opposed to the substrate) causes a different peptide mobility between the two peptides. This is visualized by excitation of a fluorescent label on the substrate and product peptides and represented as peaks within the analysis software.
The Desktop Profiler utilizes the same prinicipal as the LC 3000 for calculating percentage conversion of a substrate to product. Caliper Life Sciences provided proprietary flash frozen pre-made 384 well plates containing selected kinases. Each column in the 384 well plate contained a particular selected kinase. A second plate, the ‘substrate plate’ contained a mix of fluorescently labeled peptide substrate and ATP. These were arranged in columns so that transfer for substrate plate to enzyme plate provided the correct enzyme with the correct substrate/ATP concentration.
Compounds were added to a thawed enzyme plate in the desired format, in single concentrations. Reactions were initiated by transfer of the substrate/ATP mix from the substrate plate. The enzyme plate was incubated for 90 mins at 25° C. The reaction was stopped by addition of 70 μl of Stop Buffer (100 mM HEPES pH 7.5, 0.015% Brij-35, 10 mM EDTA (Sigma, E7889)).
Plates were read in a manner identical to that of the LC3000, and the ratio between substrate and product peaks provided the activity of the enzyme in that well. This was best represented by a plate heat map which colors each well by percent inhibition as compared to positive and negative controls (no inhibitors and no ATP respectively).

| Structure (SMILES) | IC50 [1] | IC50 [2] |
| --- | --- | --- |
| O=C(Nc1ccc(Nc2ccnc3nc(OCCN4CCOCC4)ccc23)cc1)c1ccccc1 | 1 to 300 nM |  |
| COc1ccccc1C(=O)Nc1ccc(Nc2ccnc3[nH]c(=O)ccc23)cc1 | > 1000 nM | > 1000 nM |
| O=C(Nc1ccc(Nc2ccnc3[nH]c(=O)ccc23)cc1)c1cc(F)cc(C(F)(F)F)c1 | > 1000 nM |  |
| O=C(Nc1ccc(Nc2ccnc3[nH]c(=O)ccc23)cc1)c1ccc(Cl)cc1 | > 1000 nM |  |
| O=C(Nc1ccc(Nc2ccnc3nc(OCCN4CCCC4)ccc23)cc1)c1ccccc1 | > 1000 nM |  |
| Cc1ccccc1C(=O)Nc1ccc(Nc2ccnc3[nH]c(=O)ccc23)cc1 | > 1000 nM | 301 to 600 nM |
| Cc1cccc(C(=O)Nc2ccc(Nc3ccnc4[nH]c(=O)ccc34)cc2)c1 | > 1000 nM | 601 to 1000 nM |
| CN(C)C1CCN(c2ccc3c(Nc4ccc(NC(=O)c5ccccc5)cc4)ccnc3n2)C1 (centres unmarked) | 1 to 300 nM |  |
| Cc1ccc(C(=O)Nc2ccc(Nc3ccnc4[nH]c(=O)ccc34)cc2)cc1 | 1 to 300 nM |  |
| O=C(Nc1ccc(Nc2ccnc3[nH]c(=O)ccc23)cc1)c1ccc(Cl)cc1Cl | > 1000 nM |  |
| O=C(Nc1ccc(Nc2ccnc3[nH]c(=O)ccc23)cc1)c1ccc(C(F)(F)F)cc1F | > 1000 nM |  |
| O=C(Nc1ccc(Nc2ccnc3[nH]c(=O)ccc23)cc1)c1ccc(Cl)c(Cl)c1 | > 1000 nM |  |
| O=C(Nc1ccc(Nc2ccnc3[nH]c(=O)ccc23)cc1)c1c(Cl)cccc1Cl | 1 to 300 nM |  |
| O=C(Nc1ccc(Nc2ccnc3nc(OCCCN4CCOCC4)ccc23)cc1)c1ccccc1 | 1 to 300 nM |  |
